{"sequences": {"note": "By UniProt entry, the sequences of proteins in these tests, tags left out. Chains listed by the source or under a name are the forms on record and can include a tag or linker.", "UniProt P06730, with tags, fused parts or gaps": "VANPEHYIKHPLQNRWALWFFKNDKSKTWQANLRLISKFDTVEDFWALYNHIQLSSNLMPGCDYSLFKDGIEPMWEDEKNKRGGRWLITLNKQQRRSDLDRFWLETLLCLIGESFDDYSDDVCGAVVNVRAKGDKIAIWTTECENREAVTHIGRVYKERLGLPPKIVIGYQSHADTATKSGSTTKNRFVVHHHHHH"}, "source": "patent US9409961B2", "about": "“Cell penetrating peptides to target EIF4E” (Hoffmann-La Roche Inc., priority 2012, dated 2016)", "key": {"human eIF4E": {"molecular_target": "T1, human eIF4E (Homo sapiens, UniProt P06730)", "T1 construct": "made in house", "assay": "biochemical assay of peptide binding to human eIF4E (displacement of biotin labeled 4G2 peptide)", "description": "A biochemical assay was run to test peptide binding to human eIF4E.\nHuman eIF4E (aa 28-217, SEQ ID NO: 87) with a C-terminal His tag (HH-eIF4E, SEQ ID NO: 88) was expressed in E. coli in inclusion bodies. The protein was solubilized with 8 M urea and purified under denaturing conditions using nickel-charged HisTrap HP columns (GE Healthcare). The protein was refolded by diluting to approximately 0.25 mg/mL with 6 M urea, 20 mM Hepes pH 7.0, 500 mM NaCl, 1 mM DTT, 1 mM EDTA, and 0.5 M arginine.HCl, and then dialyzing overnight into the same buffer without the urea. The protein was further dialyzed into 20 mM Hepes pH 6.5, 50 mM NaCl, 1 mM EDTA, and 1 mM DTT, filtered, and then concentrated using Hitrap SP sepharose FF columns (GE Healthcare). The protein was dialyzed into 20 mM Hepes pH 7.0, 500 mM NaCl, 5 mM DTT, and 10% glycerol and stored at −80° C. until use.\nTest peptides (1.6 mM stock in DMSO) were diluted 3 fold in series in DMSO and solutions were diluted 4 fold in Assay Buffer (50 mM NaPi, pH 6.5, 50 mM KCl, 1 mM DTT, 0.004% NP40 and 0.5 mg/ml gammaglobulin). Six microliters per well of diluted peptide solutions and 12 microliters per well of 187.5 nM HH-eIF4E in Assay Buffer were added to 384-well polypropylene microplates (Matrix, Thermal Scientific). Twelve microliters per well of 187.5 nM biotin labeled 4G2 peptide (Ac-[…]Aha-Bio)-NH2 (SEQ ID NO: 91) 1:2 TFA) in Assay Buffer was added. The samples were incubated at room temperature for 20 minutes.\nSix microliters per well of 4.8 nM Eu-streptavidin (Columbia Biosciences) and 48 nM Allophycocyanin-anti His antibody (Columbia Biosciences) in Assay Buffer (without DTT) were then added and the samples were incubated at room temperature for 30 min. Assay signals were monitored by reading emission fluorescence at 665 nm on an Envision Reader (PerkinElmer Life and Analytical Sciences). IC50 values were calculated using Condoseo software (Genedata AG, Basel, Switzerland)."}, "[1]": {"assay": "stability in human plasma", "assay_type": "in vitro ADME", "details": "pH 7.4, Conc. 10 uM, 37° C.", "description": "(§1) The following study was conducted to assess the stability of the compound of Examples 2-4 (SEQ ID NOS: 9, 10 and 11) in Hannover Wistar rat and human plasma after 4 and 24 hours. Approximately, 2.0 mg of the compound of Examples 2-4 (SEQ ID NOS 9, 10 and 11) was weighed out and placed in a 4 mL amber vial. To this was added 1.0 mL DMSO. The vial was carefully vortexed to produce a solution of approximately 600 μM.\n(§2) Hannover Wistar rat plasma and human plasma (anti-coagulant sodium EDTA) were pre-warmed to 37° C. for 30 minutes in a water bath. The pH of both plasmas was adjusted to pH7.4. 1.5 mL microcentrifuge vials were used.\n(§3) The stock solution of the compound of Examples 2-4 was diluted into rat or human plasma to a final concentration of 10 μM. The two vials were gently vortexed ensuring proper mixing.\n(§4) Six new vials were labeled as follows: rat T0, rat T4, rat T24, human T0, human T4, human T24. To each of these vials, 50 μL of treated plasma was added. The T4 and T24 vials were capped and placed in a 37° C. incubator for 4 and 24 hours, respectively.\n(§5) To each of the two T0 vials, 50 μL of Sorensen buffer and 200 μL 1.0% acetic acid in acetonitrile were added. […]\n(§6) All samples were analyzed by LC/MS/MS. […] The percent of compound remaining at each time point as compared with the amount present in the comparison T0 sample was calculated."}, "stability in rat plasma": {"assay": "stability in rat plasma", "assay_type": "in vitro ADME", "details": "Hannover Wistar, pH 7.4, Conc. 10 uM, 37° C.", "description": "as §1, §2, §3, §4, §5, §6"}, "[2]": {"details": "IC50 (μM), Table 2a, cell penetrating peptides with the Y----LL-F and YWLLALFVY motifs"}, "[3]": {"details": "IC50 (μM), Table 1, peptides which bind eIF4E but are not cell-penetrating"}}}
{"compound": "CCCC[C@H](NC(=O)[C@@H](NC(=O)[C@H](CCCCN)NC(=O)[C@H](CO)NC(=O)[C@H](CCCCN)NC(=O)[C@H](Cc1ccc(O)cc1)NC(=O)[C@H](CCSC)NC(C)=O)[C@@H](C)CC)C(=O)N[C@@H](CC(C)C)C(=O)N[C@@H](Cc1c[nH]c2ccccc12)C(=O)N[C@@H](Cc1ccccc1)C(=O)N[C@@H](CC(C)C)C(=O)N[C@H](C(=O)N[C@@H](CC(C)C)C(=O)N[C@@H](Cc1ccccc1)C(=O)N[C@H](C(=O)N[C@@H](C)C(=O)N[C@@H](CCSC)C(=O)N[C@@H](Cc1c[nH]c2ccccc12)C(=O)N[C@@H](CO)C(=O)N[C@@H](CC(=O)O)C(=O)N[C@H](C(=O)N[C@@H](CCCCN)C(=O)N[C@@H](CC(C)C)C(=O)N[C@@H](CCCCN)C(=O)N[C@@H](CCCCN)C(=O)N[C@@H](CCCCN)C(=O)N[C@@H](CCCNC(=N)N)C(=O)N1CCC[C@H]1C(=O)N[C@@H](CCCCN)C(=O)N1CCC[C@H]1C(N)=O)C(C)C)C(C)C)C(C)C", "note": "[SEQ ID NO: 46]", "values": [{"measurement": "IC50", "setting": "human eIF4E; IC50 (μM), Table 3, cell-penetrating peptides without the Y----LL-F motif", "result": 6.38, "unit": "µM"}]}
{"compound": "CSCC[C@H](NC(C)=O)C(=O)N[C@@H](C)C(=O)N[C@@H](CCCCN)C(=O)N[C@@H](CC(C)C)C(=O)N[C@@H](CCCCN)C(=O)N[C@@H](Cc1ccc(O)cc1)C(=O)N[C@@H](Cc1c[nH]c2ccccc12)C(=O)N[C@@H](CC(C)C)C(=O)N[C@@H](CC(C)C)C(=O)N[C@@H](C)C(=O)N[C@@H](CC(C)C)C(=O)N[C@@H](Cc1ccccc1)C(=O)N[C@H](C(=O)N[C@@H](Cc1ccc(O)cc1)C(=O)N[C@@H](CCSC)C(=O)N[C@@H](Cc1c[nH]c2ccccc12)C(=O)N[C@H](C(=O)N[C@@H](CC(=O)O)C(=O)N[C@@H](CC(C)C)C(=O)N[C@@H](CC(C)C)C(=O)N[C@@H](CC(C)C)C(=O)N[C@@H](CC(C)(C)C)C(=O)N[C@@H](CCCCN)C(=O)N[C@@H](CCCCN)C(=O)N[C@@H](CCCNC(=N)N)C(=O)N1CCC[C@H]1C(=O)N[C@@H](CCCCN)C(=O)N1CCC[C@H]1C(N)=O)[C@@H](C)O)C(C)C", "note": "[SEQ ID NO: 30]", "values": [{"measurement": "IC50", "setting": "human eIF4E; [2]", "result": 2.24, "unit": "µM"}]}
{"compound": "CCCC[C@H](NC(=O)[C@H](Cc1ccccc1)NC(=O)[C@H](CCC(N)=O)NC(=O)[C@H](Cc1ccccc1)NC(=O)[C@H](CC(=O)O)NC(=O)[C@H](CC(C)C)NC(=O)[C@H](CC(C)C)NC(=O)[C@H](Cc1ccccc1)NC(=O)[C@H](CCC(N)=O)NC(=O)[C@H](CCCNC(=N)N)NC(=O)[C@H](CC(N)=O)NC(=O)[C@H](Cc1ccc(O)cc1)NC(C)=O)C(N)=O", "note": "[SEQ ID NO: 75, Ac-Tyr-Asn-Arg-Gln-Phe-Leu-Leu-Asp-Phe-Gln-Phe-Nle-NH2]", "values": [{"measurement": "IC50", "setting": "human eIF4E; [3]", "result": 11, "unit": "µM"}]}
{"compound": "CCCC[C@H](NC(=O)[C@H](Cc1ccccc1)NC(=O)[C@H](CCC(N)=O)NC(=O)[C@H](Cc1ccccc1)NC(=O)[C@H](CC(=O)O)NC(=O)[C@H](CC(C)C)NC(=O)[C@H](CC(C)C)NC(=O)[C@H](Cc1ccccc1)NC(=O)[C@H](CCC(N)=O)NC(=O)[C@H](CCCNC(=N)N)NC(=O)[C@H](CC(=O)O)NC(=O)[C@H](Cc1ccc(O)cc1)NC(C)=O)C(N)=O", "note": "[SEQ ID NO: 71, Ac-Tyr-Asp-Arg-Gln-Phe-Leu-Leu-Asp-Phe-Gln-Phe-Nle-NH2]", "values": [{"measurement": "IC50", "setting": "human eIF4E; [3]", "result": 11, "unit": "µM"}]}
{"compound": "CSCC[C@H](NC(C)=O)C(=O)N[C@@H](C)C(=O)N[C@@H](CC(N)=O)C(=O)N[C@@H](CC(C)C)C(=O)N[C@@H](C)C(=O)N[C@@H](Cc1ccc(O)cc1)C(=O)N[C@@H](Cc1c[nH]c2ccccc12)C(=O)N[C@@H](CC(C)C)C(=O)N[C@@H](CC(C)C)C(=O)N[C@@H](C)C(=O)N[C@@H](CC(C)C)C(=O)N[C@@H](Cc1ccccc1)C(=O)N[C@H](C(=O)N[C@@H](Cc1ccc(O)cc1)C(=O)N[C@@H](CCSC)C(=O)N[C@@H](Cc1cccc2ccccc12)C(=O)N[C@H](C(=O)N[C@@H](CC(=O)O)C(=O)N[C@@H](CC(C)C)C(=O)N[C@@H](CCCNC(=N)N)C(=O)N[C@@H](CC(C)C)C(=O)N[C@@H](Cc1ccccc1)C(=O)N[C@@H](CCCCN)C(=O)N[C@@H](CCCCN)C(=O)N[C@@H](CCCNC(=N)N)C(=O)N1CCC[C@H]1C(=O)N[C@@H](CCCCN)C(=O)N1CCC[C@H]1C(N)=O)[C@@H](C)O)C(C)C", "note": "[SEQ ID NO: 43, Ac-Met-Ala-Asn-Leu-Ala-Tyr-Trp-Leu-Leu-Ala-Leu-Phe-Val-Tyr-Met-1Nal-Thr-Asp-Leu-Arg-Leu-Phe-Lys-Lys-Arg-Pro-Lys-Pro-NH2]", "values": [{"measurement": "IC50", "setting": "human eIF4E; [2]", "result": 2.59, "unit": "µM"}]}
{"compound": "CSCC[C@H](NC(C)=O)C(=O)N[C@@H](C)C(=O)N[C@@H](CC(N)=O)C(=O)N[C@@H](CC(C)C)C(=O)N[C@@H](C)C(=O)N[C@@H](Cc1ccc(O)cc1)C(=O)N[C@@H](Cc1c[nH]c2ccccc12)C(=O)N[C@@H](CC(C)C)C(=O)N[C@@H](CC(C)C)C(=O)N[C@@H](C)C(=O)N[C@@H](CC(C)C)C(=O)N[C@@H](Cc1ccccc1)C(=O)N[C@H](C(=O)N[C@@H](Cc1ccc(O)cc1)C(=O)N[C@@H](CCSC)C(=O)N[C@@H](Cc1ccc2ccccc2c1)C(=O)N[C@H](C(=O)N[C@@H](CC(=O)O)C(=O)N[C@@H](CC(C)C)C(=O)N[C@@H](CCCNC(=N)N)C(=O)N[C@@H](CC(C)C)C(=O)N[C@@H](Cc1ccccc1)C(=O)N[C@@H](CCCCN)C(=O)N[C@@H](CCCCN)C(=O)N[C@@H](CCCNC(=N)N)C(=O)N1CCC[C@H]1C(=O)N[C@@H](CCCCN)C(=O)N1CCC[C@H]1C(N)=O)[C@@H](C)O)C(C)C", "note": "[SEQ ID NO: 44, Ac-Met-Ala-Asn-Leu-Ala-Tyr-Trp-Leu-Leu-Ala-Leu-Phe-Val-Tyr-Met-2Nal-Thr-Asp-Leu-Arg-Leu-Phe-Lys-Lys-Arg-Pro-Lys-Pro-NH2]", "values": [{"measurement": "IC50", "setting": "human eIF4E; [2]", "result": 2.15, "unit": "µM"}]}
{"compound": "CSCC[C@H](NC(C)=O)C(=O)N[C@@H](C)C(=O)N[C@@H](CC(N)=O)C(=O)N[C@@H](CC(C)C)C(=O)N[C@@H](C)C(=O)N[C@@H](Cc1ccc(O)cc1)C(=O)N[C@@H](Cc1c[nH]c2ccccc12)C(=O)N[C@@H](CC(C)C)C(=O)N[C@@H](CC(C)C)C(=O)N[C@@H](C)C(=O)N[C@@H](CC(C)C)C(=O)N[C@@H](Cc1ccccc1)C(=O)N[C@H](C(=O)N[C@@H](Cc1ccc(O)cc1)C(=O)N[C@@H](CCSC)C(=O)N[C@@H](Cc1c[nH]c2ccccc12)C(=O)N[C@H](C(=O)N[C@@H](CC(=O)O)C(=O)N[C@@H](CC(C)C)C(=O)N[C@@H](CCCNC(=N)N)C(=O)N[C@@H](CC(C)C)C(=O)N[C@@H](CC(C)(C)C)C(=O)N[C@@H](CCCCN)C(=O)N[C@@H](CCCCN)C(=O)N[C@@H](CCCNC(=N)N)C(=O)N1CCC[C@H]1C(=O)N[C@@H](CCCCN)C(=O)N1CCC[C@H]1C(N)=O)[C@@H](C)O)C(C)C", "note": "[SEQ ID NO: 11]", "values": [{"measurement": "remaining at 4 h, 10 µM", "setting": "[1]; 4 hr", "result": 103, "unit": "%"}, {"measurement": "remaining at 24 h, 10 µM", "setting": "[1]; 24 hr", "result": 77, "unit": "%"}, {"measurement": "remaining at 4 h, 10 µM", "setting": "stability in rat plasma; 4 hr", "result": 89.4, "unit": "%"}, {"measurement": "remaining at 24 h, 10 µM", "setting": "stability in rat plasma; 24 hr", "result": 24.2, "unit": "%"}, {"measurement": "IC50", "setting": "human eIF4E; Binding affinities expressed as IC50, HH-eIF4E, biotin labeled 4G2 peptide", "result": 2.37, "unit": "µM"}, {"measurement": "IC50", "setting": "human eIF4E; [2]", "result": 2.37, "unit": "µM"}]}
